Test results reported in publication PMC8002113.

Molecular target: Recombinant human DNase1L2, short isoform (DNase1L2-S) (human) (UniProt Q92874)

decrease of the viscosity of CF artificial mucus after 90 s by 5 units of DNase1L2 (20 ng/μL; 690 nM) in the presence of 0.2 mg/mL actin (~80% without actin): 50%
Substance: G-actin from rabbit muscle (from UniProt P68135 1-377) (natural protein)
